The values that follow come from ChEMBL document CHEMBL4680116, “Development of benzimidazole-based derivatives as antimicrobial agents and their synergistic effect with colistin against gram-negative bacteria” (Eur J Med Chem, 2020).

Broadly, the MIC is the lowest concentration that inhibits growth of the organism. A low value points to a more susceptible organism.

The experiment deals with Escherichia coli. The note with it: JW55031, time 18-20 hrs.

In turn, GENTAMICIN showed an MIC of 0.5 µg/mL.
